Data on two compounds can be found in patent US7772425B2, “Vitamin D receptor modulators” (Eli Lilly and Company, priority 2002, dated 2010).

This experiment deals with KERtr cells (Human skin keratinocyte). Briefly: Keratinocyte proliferation assay. The experiment is classed as cell-based. To be noted: read-out: Kera. Prolif. IC50, 72 hr, BrdU incorporation. The procedure:
6. The keratinocyte proliferation assay is described in the “Assay” section of the Description, infra.
5. The Keratinocyte Proliferation Assay
This Assay is indicative for the treatment of psoriasis. […] Preferred assay results are IC50 values of less than 100 nM.
(5) The Keratinocyte Proliferation Assay:
KERtr cells (Human skin keratinocyte transformed with a retrovirus vector, obtained from ATCC) were plated in 96-well flat-bottomed plates (3000 cells/well) in 100 μl keratinocyte serum free medium supplemented with bovine pituitary extract in the absence of EGF (Life Technologies, Rockville, Md.) and incubated at 37° C. for two days. The cells were treated with various concentrations of VDR ligands (ten-fold serial dilution from 10,000 nM to 0.1 nM in triplicate), dissolved in 100 μl keratinocyte serum free medium supplemented with bovine pituitary extract in the absence of EGF and incubated at 37° C. for 72 hr. BrdU (5-bromo-2′-deoxyuridine) incorporation was analyzed as a measure of DNA replication (Cell proliferation ELISA kit, Roche Diagnostics, Indianapolis, Ind.) and absorbance was measured at 405 nm. Potency values (IC50) values were determined as the concentration (nM) of compound that elicited a half-maximal response.

The structures appear in SMILES notation.

Take `C=C1/C(=C\C=C2/CCC[C@]3(C)[C@@H]([C@H](C)/C=C/[C@@H](O)C4CC4)CC[C@@H]23)C[C@@H](O)C[C@@H]1O`: the IC50 came out at 103 nM.

Regarding `CCC(CC)(c1ccc(OCC(O)CO)c(C)c1)c1ccc(OCC(O)C(C)(C)C)c(C)c1` (centres unmarked) [BB, 3-(4-{1-Ethyl-1-[4-(2-hydroxy-3,3-dimethyl-butoxy)-3-methyl-phenyl]-propyl}-2-methyl-phenoxy)-propane-1,2-diol, reference compound], the IC50 worked out at 10 nM.
